Reference: patent US11446308B2, “Methods and compositions for the prevention and treatment of hearing loss” (St. Jude Children's Research Hospital, priority 2015, dated 2022)

How the values were obtained:
HEI-OC1 cells = assay: Caspase-3/7 Glo assay, cisplatin-induced apoptosis in HEI-OC1 cell line; conditions: Mus musculus
[1] = test system: cisplatin-induced hair cell loss and hearing loss in FVB mice; assay: Cisplatin-induced hair cell loss and hearing loss in adult mice, transtympanic injection; conditions: 250 μM in 0.5% DMSO transtympanic, cisplatin 30 mg/kg IP, day 14, vs DMSO ear
[2] = test system: noise-induced hearing loss in FVB mice; assay: Noise-induced hearing loss in adult mice, transtympanic injection; conditions: for wave 1 amplitudes of ABR at 16 kHz: vs DMSO ear
[3] = HEI-OC1, 22 h, read-out: HEI-OC1 IC50
[4] = HEI-OC1, read-out: HEI-OC1 IC50

With O=C1Cc2c([nH]c3ccc(Br)cc23)-c2ccccc2N1 [Compound 4, Kenpaullone] the pIC50 (HEI-OC1 cells; [3]) was 5.68, the pIC50 (HEI-OC1 cells; [4]) was 5.68 and the “outer hair cell (OHC) survival after cisplatin” value [1] was “significantly protected”. The “outer hair cell (OHC) survival after cisplatin” value ([1]; listed as kenpaullone) was “significantly increases outer hair cell (OHC) survival”, the mean hearing protection ([2]; 250 μM transtympanic after 100 dB SPL 8-16 kHz noise 2 hrs, 8 kHz D7, 8 and 16 kHz D14) was roughly 12 dB and the ctbp2 puncta loss ([2]; 250 μM transtympanic, vs DMSO + noise) was “significantly protects ctbp2 puncta loss”. The “wave 1 amplitudes of ABR at 16 kHz” value ([2]; 250 μM transtympanic) was “increased” and the “wave 1 amplitudes of ABR at 16 kHz” value ([2]; 250 μM transtympanic, listed as kenpaullone) was “significant differences”.

Work on NS(=O)(=O)c1ccc(N/N=C2\C(=O)Nc3cc(Br)ccc32)cc1 [Compound 12, CDK2 inhibitor II] yielded a pIC50 (HEI-OC1 cells; [3]) of 6.30 and a pIC50 (HEI-OC1 cells; [4]) of 6.30.

pIC50: −log10 of the molar value. Like-named read-outs stand apart in the source and are kept apart here.
